Literature values, collected in article PMC10812433.
pKd: −log10 of the molar value. “And” between values parts separate entries of the source, which are not always exact repeats. Identical values can stand only once.

Chains of the proteins cited; added tags and fusions are not shown. Lines headed by an entry give the natural chain unless they say otherwise; changes in a name come on top.
UniProt P00581: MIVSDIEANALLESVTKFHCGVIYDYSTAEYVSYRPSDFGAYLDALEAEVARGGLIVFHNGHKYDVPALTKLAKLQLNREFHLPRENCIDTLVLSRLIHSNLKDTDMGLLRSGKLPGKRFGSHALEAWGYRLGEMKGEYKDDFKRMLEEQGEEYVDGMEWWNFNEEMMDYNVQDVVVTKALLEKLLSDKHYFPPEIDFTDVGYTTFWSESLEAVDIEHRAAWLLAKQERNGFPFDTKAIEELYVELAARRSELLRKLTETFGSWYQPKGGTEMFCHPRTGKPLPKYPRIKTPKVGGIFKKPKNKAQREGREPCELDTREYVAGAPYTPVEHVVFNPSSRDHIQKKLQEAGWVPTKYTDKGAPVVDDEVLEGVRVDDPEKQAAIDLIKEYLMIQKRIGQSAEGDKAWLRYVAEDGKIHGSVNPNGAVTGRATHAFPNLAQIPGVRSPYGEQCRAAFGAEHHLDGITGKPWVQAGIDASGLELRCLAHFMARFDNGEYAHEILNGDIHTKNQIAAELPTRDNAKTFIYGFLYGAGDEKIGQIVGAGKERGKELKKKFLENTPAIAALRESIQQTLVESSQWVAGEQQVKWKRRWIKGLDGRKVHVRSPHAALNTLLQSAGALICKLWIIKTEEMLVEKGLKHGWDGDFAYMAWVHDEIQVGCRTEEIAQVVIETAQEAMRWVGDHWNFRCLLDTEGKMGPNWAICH

Target: g5p (T7 DNA polymerase) (Escherichia phage T7) (UniProt P00581)

## thioredoxin 1 (EcoTrx1) (from UniProt P0AA25)
  pKd: 8.30 and 8.66
